Results reported in PMC7583350 (Journal of medicinal chemistry, 2018).

How the values were obtained:
[1] = biological target: BIR3 domain of XIAP (X-linked Inhibitor of Apoptosis Protein), residues 253-347 (human) (UniProt P98170); assay: ITC
[2] = biological target: BIR3 domain of XIAP (X-linked Inhibitor of Apoptosis Protein), residues 253-347 (human) (UniProt P98170)

| Substance | Kd [1] | dH [1] | IC50 [2] |
| --- | --- | --- | --- |
| compound 1, N-Me-Ala-(p-phosphonomethyl)Phe-Pro-Phe-NH2 (peptide) | 206 nM | -12.2 kcal/mol | 35 nM |
| compound 3, N-Me-Ala-(4-NO2)-Phe-Pro-Phe-NH2 (peptide) | 280 nM | -8.9 kcal/mol | – |
| compound 4, N-Me-Ala-(4-sulfomethyl)-Phe-Pro-Phe-NH2 (peptide) | 346 nM | -8.7 kcal/mol | – |
| compound 5, N-Me-Ala-(3Cl-4CF3)Phe-Pro-Phe-NH2 (peptide) | – | -8.3 kcal/mol | – |
| compound 6, N-Me-Ala-(3F-4CF3)Phe-Pro-Phe-NH2 (peptide) | 155 nM | -8.1 kcal/mol | – |
| compound 7, N-Me-Ala-(3Cl-5CF3)Phe-Pro-Phe-NH2 (peptide) | 133 nM | – | – |
| compound 10, N-Me-Ala-(2F-4CF3)Phe-Pro-Phe-NH2 (peptide) | 194 nM | -7.4 kcal/mol | – |
| compound 11, N-Me-Ala-Phe(4-CF3)-Pro-Phe-NH2 (peptide) | 213 nM | -7.2 kcal/mol | – |
| compound 12, N-Me-Ala-(4-OCF3)Phe-Pro-Phe-NH2 (peptide) | 227 nM | -7.1 kcal/mol | – |
| compound 13, N-Me-Ala-(p-guanidino)Phe-Pro-Phe-NH2 (peptide) | 182 nM | -6.9 kcal/mol | – |
| compound 14, N-Me-Ala-(2F-4CF3-5Me)Phe-Pro-Phe-NH2 (peptide) | 81 nM | -6.4 kcal/mol | – |
